## Measured affinities in a library of Ab-95 light chain variants

From the AlphaSeq antibody data of Engelhart et al. 2022 (doi:10.1038/s41597-022-01779-4), copy in the FLAb collection.

Binding partner: SARS-CoV-2 spike HR2 peptide, sequence PDVDLGDISGINAS.

Parent scFv Ab-95: VH joined to VL by the linker GGGGSGGGGSGGGGS. Changes lie in the light chain CDRs alone.
VH: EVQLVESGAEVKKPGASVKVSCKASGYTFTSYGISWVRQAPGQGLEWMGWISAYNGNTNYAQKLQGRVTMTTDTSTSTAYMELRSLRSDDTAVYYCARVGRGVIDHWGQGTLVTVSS
VL: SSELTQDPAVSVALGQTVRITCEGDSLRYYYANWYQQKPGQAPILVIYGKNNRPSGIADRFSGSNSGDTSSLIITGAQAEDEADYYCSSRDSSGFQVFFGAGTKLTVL

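The parent was found by panning a naive human phage display library on the peptide. Library AAYL52 holds single substitutions and randomly drawn double and triple substitutions in the CDRs. AlphaSeq pools MATa yeast showing the antibodies with MATalpha yeast showing the peptide. The frequency of each diploid, read from paired DNA barcodes, reflects how well the two displayed proteins bind. The ratio of observed to expected reads was calibrated, replicate by replicate, on BCL2-family standards whose Kd was known from biolayer interferometry. Each pool was mated in three replicate cultures.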

The parent's light chain CDRs are EGDSLRYYYAN, GKNNRPS, SSRDSSGFQVF; each variant's own CDRs replace them letter for letter.
Kd is apparent (estimated from mating counts) and averaged on the log scale over replicates with a signal. Smaller is tighter.
An entry "no signal" has no value in the source: the pair was not observed among the diploids in any replicate. This suggests poor binding but is not conclusive.

apparent Kd	seen in	signal with controls	CDR-L1	CDR-L2	CDR-L3
4.5 µM	1/3	0/9	EGDSLRYYYAN	NKNWRHS	SSRDSSGFQVF
890 nM	3/3	2/9	EGDSLRYLYAN	GKNDRPS	DSRDSSGFQVF
no signal	0/3	1/9	EGDYKRYYYAN	GKNNRPS	SSNDSSGFQVF
42 nM	3/3	5/9	EGDSLRYYGAN	GKNNRPS	SSRDKSGCQVF
260 nM	3/3	5/9	EGYSLRYYYAN	GKNNRAS	SSRDSSGFQVY
8.2 nM	3/3	2/9	EGDSLRYYEAN	GHNNRPS	SSRDSSGFQVW
30 µM	3/3	3/9	EGDSLRYYYAN	GKNNQPQ	SSRDSSGFPVF
260 nM	3/3	4/9	EGDSLRDYYAN	GKNNRPS	SSRDSSNPQVF
6.1 µM	2/3	2/9	EGDSLRYCYAN	VNNNRPS	SSRDSSGFQVF
no signal	0/3	0/9	EGDSLRYYRAL	GKNNRPS	SSRDKSGFQVF
1.9 µM	3/3	1/9	GGDSLRYYFAN	GKNNRPS	SSRHSSGFQVF
10 µM	2/3	1/9	EGDNLRYYYAN	GKNNRPI	LSRDSSGFQVF
670 nM	3/3	4/9	EGDSLRYYYAN	GKNQRPS	SSRDSSNFQVI
6.8 µM	2/3	4/9	EGDSLRYYYAW	GKNNRPS	SSRDSWGFQLF
930 nM	3/3	4/9	EGDTLRYYYAN	GKNNRPS	SSRDSSGEQVF
no signal	0/3	0/9	EGDCLRYYYAN	YINNRPS	SSRDSSGFQVF
31 µM	1/3	3/9	ETDSLRYYYAN	GKNNRPS	ISRDSSGFSVF
12 µM	2/3	1/9	EGDSLRYYYAN	FANNRPS	SSPDSSGFQVF
no signal	0/3	2/9	EGDSLRYYYAN	MKNNRPS	NSRDSSGFQVV
570 nM	1/3	6/9	EGDSLRYYYAN	GKNVRRS	STRDSSGFQVF
700 nM	3/3	4/9	EGDSLRYYGAN	GKNNLPS	SSRDSVGFQVF
56 nM	3/3	2/9	EGPSLRYYAAN	GKNNLPS	SSRDSSGFQVF
4.0 µM	3/3	8/9	EGDSLRYYYRN	SKNNRPS	SSRDSPGFQVF
130 nM	3/3	1/9	EGDSLRYYLAN	GKNNRPS	STRDSSGFQVF
1.0 µM	3/3	6/9	EGDSLRYYYAN	GSNNRPS	SSRNSSGFPVF
no signal	0/3	0/9	EGDKLRYYYAN	GKNNRPS	SSRLSSGFQRF
410 nM	3/3	2/9	EGDSLRYYYAN	GKNNRPS	SFRDSSHFCVF
49 µM	1/3	3/9	EYDSLRYYYAT	TKNNRPS	SSRDSSGFQVF
13 µM	1/3	2/9	ETDSLRYYYAN	FKNNRPS	SARDSSGFQVF
73 µM	2/3	4/9	EGDSLRIYYAN	FKNNRPS	SSRDSSGGQVF
180 nM	1/3	0/9	ESDSLRYYYAN	GKNNRPS	GSRDSSGFQVL
5.6 µM	3/3	3/9	EGDSLRYYYAN	GPNNRHS	SSRDSSGFKVF
no signal	0/3	0/9	EGDSLRYYYAF	GKYNRPS	SSRDSSGFQKF
no signal	0/3	2/9	ETDSYRYYYAN	GKNNGPS	SSRDSSGFQVF
2.1 µM	3/3	4/9	EGDSLAYYYAN	GKNNRPS	SSRDSSGSQTF
680 nM	3/3	2/9	EGDSLRYYYAN	GKNNRPC	VSRDSSGFRVF
89 nM	3/3	5/9	EGDSLRYYYAN	GKNNRPS	SCRVSSGFQQF
no signal	0/3	0/9	EGDSLRYYYAN	GFENRPS	SSRDSSGFQYF
no signal	0/3	0/9	EGDSLRYYKCN	GKNNWPS	SSRDSSGFQVF
19 µM	2/3	6/9	EGDSLRYYYAN	GKNNAPW	SSRDSSDFQVF
8.2 µM	3/3	2/9	EMDSLRYYYAN	GKNNRPS	SSRPSSGFQVV
1.4 µM	2/3	3/9	EGDSLRRYYAN	GKNNRPS	MSRDSSQFQVF
no signal	0/3	2/9	EGDSLAYYYAN	GKNNRPS	SSRDSSGFQQF
4.8 µM	3/3	8/9	EGDDLRYYYAN	GINNRPS	SSRDSSFFQVF
1.6 µM	1/3	2/9	EGDSTDYYYAN	GKNNCPS	SSRDSSGFQVF
4.3 µM	1/3	1/9	EGYSRRYYYAN	GKNNRPS	SRRDSSGFQVF
22 µM	1/3	1/9	EGDSIRYYYSN	GKNNRIS	SSRDSSGFQVF
3.1 µM	2/3	3/9	EGDSLRQYYAN	GKLNRPS	SSRDSSGFAVF
9.1 µM	2/3	3/9	EGDQLRYYYAN	GKNNRPS	SSRDSSGFQPF
36 µM	2/3	4/9	EGDSLRYYYAN	GKNNRMS	SSTDSSGFQVF

The 4 strongest on average among those seen in every replicate, once more:

CDR-L1	CDR-L2	CDR-L3	apparent Kd	seen in	signal with controls
EGDSLRYYEAN	GHNNRPS	SSRDSSGFQVW	8.2 nM	3/3	2/9
EGDSLRYYGAN	GKNNRPS	SSRDKSGCQVF	42 nM	3/3	5/9
EGPSLRYYAAN	GKNNLPS	SSRDSSGFQVF	56 nM	3/3	2/9
EGDSLRYYYAN	GKNNRPS	SCRVSSGFQQF	89 nM	3/3	5/9

Nonspecific signal, from three strains lacking the peptide, appeared in 28% of pairings of library AAYL52, centred on 8.2 µM (5% of these signals below 800 nM); values are not corrected for it. Also given: how often the same scFv was detected with the empty control strains.